Source: paper PMC2363230, “Human tumour-associated cell adhesion protein MN/CA IX: identification of M75 epitope and of the region mediating cell adhesion” (British Journal of Cancer, 2000)

Experiments:
[1] = target: T1, M75 epitope of immobilized GST-MN (Homo sapiens, UniProt Q16790); assay: Competition ELISA, peptides binding to the epitope of immobilized GST-MN (Figure 4A); settings: nonapeptides 7 + 2 aa, C-terminal alanine amide
T1 construct: made in house; host or cells: bacteria

[2] = test system: adhesion of CGL1 cells to MN/CA IX; assay: Inhibition of cell adhesion to MN/CA IX dots by oligopeptides added to the media with the cell suspension (Figure 4B); assay type: cell-based, human; settings: nonapeptides 7 + 2 aa, C-terminal alanine amide, absorbance at 630 nm of stained attached cells

4: AGQTRSPLA, identified by panning on GST-MN and eluted with acetazolamide [compound 4]
activity in competition ELISA of phage display-selected peptides (in words) [1]: inactive | activity in cell adhesion inhibition of phage display-selected peptides (in words) [2]: inactive
